{
  "sequences": {"note": "By UniProt entry, the sequences of proteins in these tests, tags left out. Where a name states a change or a piece, a line headed by the entry shows the natural chain unless it says otherwise.", "UniProt Q12809": "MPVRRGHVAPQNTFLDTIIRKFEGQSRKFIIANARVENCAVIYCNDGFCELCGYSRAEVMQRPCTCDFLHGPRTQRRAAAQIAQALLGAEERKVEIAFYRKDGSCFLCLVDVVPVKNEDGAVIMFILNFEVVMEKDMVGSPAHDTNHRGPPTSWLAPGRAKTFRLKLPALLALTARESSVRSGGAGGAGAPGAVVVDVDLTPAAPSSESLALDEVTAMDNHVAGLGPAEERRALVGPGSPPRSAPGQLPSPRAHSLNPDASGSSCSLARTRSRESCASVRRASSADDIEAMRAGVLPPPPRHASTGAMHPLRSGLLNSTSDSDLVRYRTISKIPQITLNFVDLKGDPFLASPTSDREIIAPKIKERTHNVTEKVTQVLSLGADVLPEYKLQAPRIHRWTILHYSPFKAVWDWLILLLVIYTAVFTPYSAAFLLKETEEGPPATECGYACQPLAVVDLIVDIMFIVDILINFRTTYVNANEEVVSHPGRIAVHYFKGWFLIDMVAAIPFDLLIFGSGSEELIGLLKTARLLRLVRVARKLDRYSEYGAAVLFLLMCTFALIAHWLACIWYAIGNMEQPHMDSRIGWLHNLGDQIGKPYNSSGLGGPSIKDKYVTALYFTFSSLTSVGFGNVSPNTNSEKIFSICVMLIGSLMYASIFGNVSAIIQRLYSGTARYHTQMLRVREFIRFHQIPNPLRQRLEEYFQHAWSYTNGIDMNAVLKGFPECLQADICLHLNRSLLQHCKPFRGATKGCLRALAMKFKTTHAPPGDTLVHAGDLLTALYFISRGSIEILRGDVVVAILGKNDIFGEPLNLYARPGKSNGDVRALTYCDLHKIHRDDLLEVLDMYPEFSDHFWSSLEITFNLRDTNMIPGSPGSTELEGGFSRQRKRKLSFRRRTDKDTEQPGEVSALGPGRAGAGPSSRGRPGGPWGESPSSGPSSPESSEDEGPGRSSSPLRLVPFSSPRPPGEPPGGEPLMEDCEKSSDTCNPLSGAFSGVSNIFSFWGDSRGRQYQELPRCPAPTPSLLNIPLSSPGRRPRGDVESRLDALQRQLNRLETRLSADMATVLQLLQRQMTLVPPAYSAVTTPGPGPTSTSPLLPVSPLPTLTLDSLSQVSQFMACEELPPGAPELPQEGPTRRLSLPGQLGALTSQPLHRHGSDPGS"},
  "source": "paper PMC5782818",
  "about": "(Bioorganic & medicinal chemistry letters, 2017)",
  "molecular_target": "hERG channel (Homo sapiens, UniProt Q12809)",
  "assay": "in vitro",
  "conditions": "pH 7.4, fold selectivity for VMAT2 vs hERG, relative to inhibition of VMAT2 function",
  "note": "Counter-ions that a name gives are not always drawn.",
  "data": [
    {"smiles": "FCCOc1ccccc1CCN1CCN(CCc2ccccc2Cl)CC1", "note": "[Compound 15d, 1-(2-chlorophenethyl)-4-(2-(2-fluoroethoxy)phenethyl)piperazine dihydrochloride]", "values": [
      {"measurement": "selectivity ratio", "value": 60}
    ]}
  ]
}
